Source: article PMC3390344, “Antibacterial Activity and Mechanism of a Scorpion Venom Peptide Derivative In Vitro and In Vivo” (PLoS ONE, 2012)

Test system: methicillin-resistant coagulase-negative Staphylococcus (MRCNS) P1369
Assay type: cell-based
Details: P1369, methicillin resistant (MRCNS) clinical isolate; repeated at least three times
Procedure: Clinical isolates were obtained from the 302nd military hospital of Beijing, China, including penicillin-resistant S. aureus (PRSA) P1383, penicillin-resistant S. epidermidis (PRSE) P1389, methicillin-resistant S. aureus (MRSA) P1381, P1386 and P1374, methicillin-resistant coagulase-negative Staphylococcus (MRCNS) P1369, and penicillin-sensitive S. epidermidis (PSSE) P1111.
The MIC was determined via a microdilution assay in 96-well microtiter plates according to the broth microdilution guideline of Clinical and Laboratory Standards Institute (CLSI).

In the case of Penicillin, the MIC is reported as 20 mg/mL.
